This passage reports Ki and IC50 results from ChEMBL document CHEMBL1137664, “Conflicting requirements of Plasmodium falciparum dihydrofolate reductase mutations conferring resistance to pyrimethamine-WR99210 combination” (Antimicrob Agents Chemother, 2007).

By UniProt entry, the sequences of proteins in these tests, tags left out.
UniProt Q8I1R6, whole entry N51I/C59R/K96N/S108N/I164L: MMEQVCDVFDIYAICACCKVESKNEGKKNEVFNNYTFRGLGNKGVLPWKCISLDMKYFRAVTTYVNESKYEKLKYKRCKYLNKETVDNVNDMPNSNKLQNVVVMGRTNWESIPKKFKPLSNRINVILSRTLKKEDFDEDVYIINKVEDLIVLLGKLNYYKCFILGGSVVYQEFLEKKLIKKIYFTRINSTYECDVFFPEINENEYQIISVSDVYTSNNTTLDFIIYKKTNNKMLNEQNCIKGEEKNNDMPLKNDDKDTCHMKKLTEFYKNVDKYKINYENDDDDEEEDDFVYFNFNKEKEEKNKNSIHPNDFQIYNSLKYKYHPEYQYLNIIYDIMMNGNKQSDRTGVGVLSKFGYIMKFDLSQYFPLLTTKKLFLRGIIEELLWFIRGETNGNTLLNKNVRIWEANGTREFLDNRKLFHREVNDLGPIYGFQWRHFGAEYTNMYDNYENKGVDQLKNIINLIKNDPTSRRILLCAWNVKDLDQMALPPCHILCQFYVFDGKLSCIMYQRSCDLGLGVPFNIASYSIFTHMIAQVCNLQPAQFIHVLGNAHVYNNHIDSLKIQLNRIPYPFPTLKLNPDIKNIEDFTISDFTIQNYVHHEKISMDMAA

In assay [1] the target is T1, Bifunctional dihydrofolate reductase-thymidylate synthase (Plasmodium falciparum (isolate 3D7), UniProt Q8I1R6, C59R/I164L/K96N/N51I/S108N). Briefly: Inhibition of pyrimethamine-resistant form-2 Plasmodium falciparum N51I, C59R, S108N, I164L, K96N mutant expressed in Escherichia coli BL21(DE3) by Michaelis-Menten based competitive inhibition assay.
For assay [2], the target named is T1, Bifunctional dihydrofolate reductase-thymidylate synthase. Briefly: Inhibition of pyrimethamine-resistant form-2 Plasmodium falciparum N51I, C59R, S108N, I164L, K96N mutant expressed in Escherichia coli BL21(DE3).

Molecules are shown by their SMILES.

In assay [1], `CCc1nc(N)nc(N)c1-c1ccc(Cl)cc1` [PYRIMETHAMINE] had a Ki of 0.85 nM. In assay [2], this compound had a 50% inhibitory concentration (IC50) of 2480 nM.

The Ki is the dissociation constant of the complex between target and ligand, obtained from inhibition or displacement. Read a high Ki as weaker binding. Usually IC50 stands for the concentration that gives 50% inhibition. A low value points to inhibition by little substance.
